{"source": "patent US4898940A", "about": "(priority 1989, dated 1990)", "key": {"[1]": {"test_system": "Lymphocytic leukemia P388", "assay": "Antitumor activity against P388 leukemia in mice", "type": "in vivo, CDF1 and BDF1 mice", "settings": "schedule 1 (once daily on days 1, 4 and 7)", "protocol": "(§1) Lymphocytic leukemia P388 (CDF1 and BDF1 mice) and lymphoid leukemia L1210 (BDF1 mice) were inoculated by intraperitoneal injection of 0.8 ml diluted ascitic fluid containing 10^6 and 10^5 cells per mouse, respectively. Melanotic melanoma B16 (BDF1 mice) were implanted 0.5 ml of a 10% tumor brei intraperitoneally. Test materials were dissolved in 0.9% saline containing 10% dimethyl sulfoxide and graded doses of them were administered to mice intraperitoneally 24 hours after tumor implantation. Either olivomycin (NSC 38270) or mitomycin C was comparatively tested as a reference compound in the experiments.\nValues for percentage ratios of 125 and above indicate significant antitumor effect."}, "Melanotic melanoma B16": {"test_system": "Melanotic melanoma B16", "assay": "Antitumor activity against B16 melanoma in mice", "type": "in vivo", "settings": "0.13 mg/kg/day ip, BDF1 mice", "protocol": "as §1"}}, "data": [{"compound": "Olivomycin A [reference compound]", "values": [{"measurement": "T/C % of MST", "setting": "[1]; 1 mg/kg/day ip", "result": 135, "unit": "%"}, {"measurement": "T/C % of MST", "setting": "[1]; 3 mg/kg/day ip", "result": 140, "unit": "%"}]}, {"compound": "CCCCCCC/C=C/C=C/C(=O)N[C@H](C(=O)N[C@H]1C[C@@H](O)CCNC(=O)/C=C/[C@H](C)NC1=O)[C@@H](C)O", "note": "[BU-2867T A]", "values": [{"measurement": "T/C % of MST", "setting": "Melanotic melanoma B16", "result": 100, "unit": "%"}]}]}
